According to patent EP4768480A1, “ALKOXY THIOPHENE ACYL ARYLAMINE COMPOUNDS AND USE THEREOF” (priority 2024, dated 2025):

The compounds below were run against T1, SMS2 (Homo sapiens, UniProt Q8NHU3) (assay: SMS2 inhibitory activity in vitro, HPLC fluorescence quantitative detection (C6-NBD-ceramide to C6-NBD-SM)). Settings: not given.
T1 construct: CAO, Yu research team, National Protein Scientific Center (Shanghai); supplied by an outside laboratory, not a commercial vendor
T1 sequence (Q8NHU3 1-365): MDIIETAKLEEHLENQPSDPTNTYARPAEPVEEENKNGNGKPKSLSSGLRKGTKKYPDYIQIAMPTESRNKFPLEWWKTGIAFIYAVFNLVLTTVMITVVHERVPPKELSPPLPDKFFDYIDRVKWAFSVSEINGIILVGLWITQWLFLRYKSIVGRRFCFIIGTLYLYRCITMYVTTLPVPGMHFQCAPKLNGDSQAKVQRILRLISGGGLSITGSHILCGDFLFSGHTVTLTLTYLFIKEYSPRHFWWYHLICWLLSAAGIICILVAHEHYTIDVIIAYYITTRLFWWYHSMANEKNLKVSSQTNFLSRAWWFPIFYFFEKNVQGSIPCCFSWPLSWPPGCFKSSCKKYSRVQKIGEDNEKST
Assay type: biochemical
Description: • 1. Electro-thermostatic water bath, from Shanghai Yiheng Technology Co., Ltd.); • 2. Vortex Mixer, with model ID of XW-80A, from Shanghai Jingke Industrial Co., Ltd.; • 3. […] High Performance Liquid Chromatography Agilent 1100, equipped with a quaternary pump, vacuum degassing, and FLD fluorescence detector, from Agilent Technologies, Palo Alto, CA, USA; • 5. HPLC column COSMOSIL 5C18-MS-II (4.6mm I.D. X 250mm); • 6. […] The organic solvents used in the present disclosure were purchased from Shanghai National Reagent Company, wherein methanol was pure chromatography; water was ultra-pure water which is filtrated by Milli-Q pump, deionized and ultra-filtrated with 0.22 µm membrane; and other biological consumables were purchased from domestic companies; • 8. Preparation of test compound solutions: each test compound was accurately weighed and dissolved in an appropriate volume of DMSO to prepare a 10 mmol/L stock solution. The stock solution was then diluted with an appropriate volume of DMSO to achieve the desired working concentration; • 9. SMS2 pure enzyme, DDM solution and buffer solution were provided by CAO, Yu research team from National Protein Scientific Center (Shanghai).
79 µl of the diluted enzyme solution were transferred into a 1.5 mL EP tube, 1 µl of inhibitor DMSO solution were added thereto, vortexing for 15 seconds, followed by standing at room temperature for 5 minutes. 20 µl of a mixed solution of DMPC and C6-NBD-ceramide were added, vortexing for 15 seconds, and incubated at 37°C for 30 minutes. 200 µl of anhydrous ethanol were added to quench the reaction, vortexing for 15 seconds. 200 µl of the reaction solution were taken out and stored at 4°C and avoided light for HPLC detection.
The peak area values of A(sm) and A(ceramide) in the HPLC chromatogram corresponding to C6-NBD-SM and C6-NBD-Ceramide in the DMSO group and inhibitor group samples were analyzed and recorded, and the inhibition rate of the test compound was calculated according to the following formula. Inhibition rate = (Peak area values of DMSO group−Peak area values of Inhibitor group)/(Peak area values of DMSO group) × 100% [formula]
Compound `O=C(Nc1cccnc1)c1sccc1OCc1cc(F)ccc1Cl` [1-2, 3-(2-chloro-5-fluorobenzyloxy)-N-(pyridin-3-yl)thiophene-2-carboxamide] has an IC50 of 69 nM.

Same assay, conditions: read-out: Inhibition rate on SMS2 at C/µM 1
`O=C(Nc1cccnc1)c1sccc1OCc1ccccc1` [1-1, 3-benzyloxy-N-(pyridin-3-yl)thiophene-2-carboxamide] showed an inhibition at 1 µM of 56%.
Compound `O=C(Nc1cccnc1)c1sccc1OCc1cc(F)ccc1Cl` [1-2, 3-(2-chloro-5-fluorobenzyloxy)-N-(pyridin-3-yl)thiophene-2-carboxamide] has an inhibition at 1 µM of 81%.
For `CCCCCCCCCCCCOc1ccccc1COc1ccsc1C(=O)Nc1cccnc1` [1-27, 3-(2-(dodecyloxy)benzyloxy)-N-(pyridin-3-yl)thiophene-2-carboxamide], the inhibition at 1 µM was 96%.
`CCCCCCCCCCCOc1ccccc1COc1ccsc1C(=O)Nc1cccnc1` [1-28, 3-(2-(undecyloxy)benzyloxy)-N-(pyridin-3-yl)thiophene-2-carboxamide] showed an inhibition at 1 µM of 97%.
In the case of `CCCCCCCCCCOc1ccccc1COc1ccsc1C(=O)Nc1cccnc1` [1-29, 3-(2-(decyloxy)benzyloxy)-N-(pyridin-3-yl)thiophene-2-carboxamide], the inhibition at 1 µM is reported as 95%.
In the case of `CCCCCCCCCOc1ccccc1COc1ccsc1C(=O)Nc1cccnc1` [1-30, 3-(2-(nonyloxy)benzyloxy)-N-(pyridin-3-yl)thiophene-2-carboxamide], the inhibition at 1 µM is reported as 95%.
Compound `CCCCCCCCOc1ccccc1COc1ccsc1C(=O)Nc1cccnc1` [1-31, 3-(2-(octyloxy)benzyloxy)-N-(pyridin-3-yl)thiophene-2-carboxamide] has an inhibition at 1 µM of 96%.
In the case of `CCCCCCCOc1ccccc1COc1ccsc1C(=O)Nc1cccnc1` [1-32, 3-(2-(heptyloxy)benzyloxy)-N-(pyridin-3-yl)thiophene-2-carboxamide], the inhibition at 1 µM is reported as 97%.
In the case of `CCCCCCOc1ccccc1COc1ccsc1C(=O)Nc1cccnc1` [1-33, 3-(2-(hexyloxy)benzyloxy)-N-(pyridin-3-yl)thiophene-2-carboxamide], the inhibition at 1 µM is reported as 94%.
For `CCCCCOc1ccccc1COc1ccsc1C(=O)Nc1cccnc1` [1-34, 3-(2-(pentyloxy)benzyloxy)-N-(pyridin-3-yl)thiophene-2-carboxamide], the inhibition at 1 µM was 95%.
Compound `CCCCOc1ccccc1COc1ccsc1C(=O)Nc1cccnc1` [1-35, 3-(2-(butoxy)benzyloxy)-N-(pyridin-3-yl)thiophene-2-carboxamide] has an inhibition at 1 µM of 91%.
For `CCCOc1ccccc1COc1ccsc1C(=O)Nc1cccnc1` [1-36, 3-(2-(propoxy)benzyloxy)-N-(pyridin-3-yl)thiophene-2-carboxamide], the inhibition at 1 µM was 85%.
Compound `CCOc1ccccc1COc1ccsc1C(=O)Nc1cccnc1` [1-37, 3-(2-(ethoxy)benzyloxy)-N-(pyridin-3-yl)thiophene-2-carboxamide] has an inhibition at 1 µM of 89%.
Compound `O=C(Nc1cccnc1)c1sccc1OCc1ccccc1Cl` [1-47, 3-(2-chlorobenzyloxy)-N-(pyridin-3-yl)thiophene-2-carboxamide] has an inhibition at 1 µM of 74%.
In the case of `O=C(Nc1cccnc1)c1sccc1OCc1cccc(Cl)c1` [1-48, 3-(3-chlorobenzyloxy)-N-(pyridin-3-yl)thiophene-2-carboxamide], the inhibition at 1 µM is reported as 74%.
For `COc1ccccc1COc1ccsc1C(=O)Nc1cccnc1` [1-57, 3-(2-methoxybenzyloxy)-N-(pyridin-3-yl)thiophene-2-carboxamide], the inhibition at 1 µM was 87%.
In the case of `O=C(Nc1cccnc1F)c1sccc1OCc1ccccc1` [1-90, 3-benzyloxy-N-(2-fluoropyridin-3-yl)thiophene-2-carboxamide], the inhibition at 1 µM is reported as 56%.

Same assay, conditions: read-out: Inhibition rate on SMS2 at C/µM 10
In the case of `O=C(Nc1cccnc1)c1sccc1OCc1ccc(Cl)cc1` [1-49, 3-(4-chlorobenzyloxy)-N-(pyridin-3-yl)thiophene-2-carboxamide], the inhibition at 10 µM is reported as 51%.
